Tested on: Cabbage
Assay: Cabbage shoot dry weight after foliar treatment with glycan composite components
Format: in vivo
Details: cabbage shoots, foliar 10 ml/flat, dissolved in Metals^2+ solution, n=36; Metals^2+ control 0.56

Compound: O=C([O-])CCC(=O)C(=O)[O-].[K+].[K+] [aKG, potassium α-ketoglutarate]
- Mean dry weight, Gram: 0.59 Gram

Source: US11968978B2, “Formulations and methods for treating photosynthetic organisms and enhancing qualities and quantities of yields with glycan composite formulations” (Innovation Hammer LLC, priority 2016, dated 2024)
